Results published in PMC9019904, “AD Informer Set: Chemical tools to facilitate Alzheimer's disease drug discovery” (Alzheimer's & Dementia : Translational Research & Clinical …, 2022).

Assay: Kinetic solubility in aqueous buffer pH 7.4 by total chemiluminescent nitrogen determination (Analiza)

With `C=CC[N+]1([C@H]2C[C@H]3[C@@H]4CC[C@H]5C[C@H](O)[C@@H](N6CCOCC6)C[C@]5(C)[C@H]4CC[C@]3(C)[C@H]2OC(C)=O)CCCC1` [Rocuronium Bromide] the “Kinetic solubility” value was 131.6 µM.
